# Measurements reported in ChEMBL document CHEMBL1132223, “Quantitative structure-activity relationship of human neutrophil collagenase (MMP-8) inhibitors using comparative molecular field analysis and X-ray structure analysis” (J Med Chem, 1999).
# Amino acid sequences for entries named in this document (tags omitted). A change or cut given only in a name is not applied to a line headed by its entry.
# UniProt P22894: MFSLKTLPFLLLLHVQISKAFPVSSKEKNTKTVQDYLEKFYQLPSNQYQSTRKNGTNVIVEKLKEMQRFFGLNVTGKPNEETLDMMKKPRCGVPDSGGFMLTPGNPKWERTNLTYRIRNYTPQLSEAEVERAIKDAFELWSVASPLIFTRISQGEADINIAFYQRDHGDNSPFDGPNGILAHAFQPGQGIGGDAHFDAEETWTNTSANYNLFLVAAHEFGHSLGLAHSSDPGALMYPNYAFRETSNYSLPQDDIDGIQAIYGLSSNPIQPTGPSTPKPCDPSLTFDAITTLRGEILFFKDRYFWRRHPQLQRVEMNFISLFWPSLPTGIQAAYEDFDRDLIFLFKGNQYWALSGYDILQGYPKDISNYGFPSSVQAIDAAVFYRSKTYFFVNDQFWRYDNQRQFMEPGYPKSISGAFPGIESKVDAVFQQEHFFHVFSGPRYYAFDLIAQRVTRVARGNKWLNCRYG
# Target: Neutrophil collagenase (Homo sapiens, UniProt P22894)
# Test: Inhibition of human neutrophil collagenase [Matrix Metalloprotease-8, MMP-8]
row,IC50 [nM],Structure (SMILES)
1,20,O=C(NO)[C@H]1Cc2ccccc2CN1S(=O)(=O)c1ccccc1
2,20,O=C(NO)[C@H]1Cc2ccccc2CN1S(=O)(=O)CCc1ccccc1
3,300,CCOC(=O)Nc1cccc(S(=O)(=O)N2Cc3ccccc3C[C@@H]2C(=O)NO)c1
